Assay: Radiostability (RCP, Met═O by HPLC) of preformed ^177Lu-A with individual amino acids added (Example 1)
Assay type: physicochemical
Details: methionine oxidized form of ^177Lu-A, room temperature; for 0-1 h Met═O (%): amino acid 6.6 mg/mL added to ^177Lu-A ~20 mCi/mL (3.5 mCi total); for 24-h Met═O (%) / 48-h Met═O (%): amino acid 6.6 mg/mL, ~20 mCi/mL

| Structure (SMILES) | 0-1 h Met═O (%) | 24-h Met═O (%) | 48-h Met═O (%) |
| --- | --- | --- | --- |
| N[C@@H](Cc1c[nH]cn1)C(=O)O [Histidine, L-Histidine] | 7.5% | 44% | 29.5% |
| C[Se]CC[C@H](N)C(=O)O [L-Selenomethionine] | 0% | 0.9% | 0.1% |
| N[C@@H](Cc1c[nH]c2ccccc12)C(=O)O [Tryptophan, L-Tryptophan] | 4.5% | 46.8% | 81.8% |

— patent publication US20120065365A1, “Stable Radiopharmaceutical Compositions and Methods for Their Preparation” (BRACCO IMAGING S.P.A., priority 2003, published 2012)
